Values quoted from earlier work in publication PMC10761119, “Phosphorylation-state dependent intraneuronal sorting of Aβ differentially impairs autophagy and the endo-lysosomal system” (Autophagy, 2023).

Tested on: Aβ degrading proteases
Details: effect of phosphorylation of Aβ at Ser8; cited from earlier work

amyloid-β phosphorylated at serine residue 8 [p-Ser8Aβ]
Degradation by Aβ degrading proteases: strongly decreases its degradation
